Conditions: excess amiodarone in 10 ml of water at room temperature, rotated 24 hours at 50 rpm, filtered and assayed

## CCCCc1oc2ccccc2c1C(=O)c1cc(I)c(OCCN(CC)CC)c(I)c1 [amiodarone, 2-n-butyl-3-(3,5-diiodo-4-(β-N-diethylaminoethoxy)benzoyl) benzofuran]
  amiodarone contained in the solution: 0.9 mg/mL

Reference: patent US20030139468A1, “Amiodarone solutions suitable for intravenous administration” (American Home Products Corporation, priority 2002, published 2003)
